What was measured:
Conditions in all cases: positive substrate 20 μM, 10 min
human OCT2 = human OCT2 (Homo sapiens, UniProt O15244); assay: Cellular transport assay, HEK-293 cells expressing human OCT2
rat Oct1 = rat Oct1 (Rattus norvegicus, UniProt Q63089); assay: Cellular transport assay, HEK-293 cells expressing rat Oct1
rat Oct2 = rat Oct2 (Rattus norvegicus, UniProt Q9R0W2); assay: Cellular transport assay, HEK-293 cells expressing rat Oct2
human OCT1 = human OCT1 (Homo sapiens, UniProt O15245); assay: Cellular transport assay, HEK-293 cells expressing human OCT1

Sequences of proteins named here, by UniProt entry; tags and fusion partners are left off. A change or cut given only in a name is not applied to a line headed by its entry.
UniProt O15244: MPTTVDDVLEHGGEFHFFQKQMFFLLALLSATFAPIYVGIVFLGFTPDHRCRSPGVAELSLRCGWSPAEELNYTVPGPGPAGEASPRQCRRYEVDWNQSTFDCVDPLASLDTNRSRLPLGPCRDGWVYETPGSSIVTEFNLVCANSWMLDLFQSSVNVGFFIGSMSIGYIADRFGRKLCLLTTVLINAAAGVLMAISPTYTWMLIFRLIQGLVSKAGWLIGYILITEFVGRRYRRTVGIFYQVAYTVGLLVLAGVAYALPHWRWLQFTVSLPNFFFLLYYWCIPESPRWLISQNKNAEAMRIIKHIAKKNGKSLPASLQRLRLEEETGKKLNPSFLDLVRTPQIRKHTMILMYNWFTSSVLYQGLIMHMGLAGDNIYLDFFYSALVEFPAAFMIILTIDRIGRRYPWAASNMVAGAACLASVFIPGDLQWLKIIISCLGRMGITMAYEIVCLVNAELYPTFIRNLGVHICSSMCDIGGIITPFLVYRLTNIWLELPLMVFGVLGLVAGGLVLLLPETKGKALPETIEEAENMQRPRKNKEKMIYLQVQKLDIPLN
UniProt Q63089: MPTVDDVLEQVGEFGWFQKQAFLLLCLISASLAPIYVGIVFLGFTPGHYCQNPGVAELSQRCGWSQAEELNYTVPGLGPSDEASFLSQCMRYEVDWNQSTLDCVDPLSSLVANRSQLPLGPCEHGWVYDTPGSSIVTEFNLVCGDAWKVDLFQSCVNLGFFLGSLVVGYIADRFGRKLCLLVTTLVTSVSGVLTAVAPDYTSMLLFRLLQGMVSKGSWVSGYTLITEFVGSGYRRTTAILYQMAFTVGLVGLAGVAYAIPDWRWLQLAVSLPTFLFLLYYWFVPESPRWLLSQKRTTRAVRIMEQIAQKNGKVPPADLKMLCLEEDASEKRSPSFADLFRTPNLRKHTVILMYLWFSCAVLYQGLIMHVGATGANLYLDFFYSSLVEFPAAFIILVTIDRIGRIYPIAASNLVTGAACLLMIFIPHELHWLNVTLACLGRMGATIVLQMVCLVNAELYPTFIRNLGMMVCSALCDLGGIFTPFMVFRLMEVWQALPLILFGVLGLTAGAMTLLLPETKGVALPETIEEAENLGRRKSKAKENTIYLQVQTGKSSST
UniProt Q9R0W2: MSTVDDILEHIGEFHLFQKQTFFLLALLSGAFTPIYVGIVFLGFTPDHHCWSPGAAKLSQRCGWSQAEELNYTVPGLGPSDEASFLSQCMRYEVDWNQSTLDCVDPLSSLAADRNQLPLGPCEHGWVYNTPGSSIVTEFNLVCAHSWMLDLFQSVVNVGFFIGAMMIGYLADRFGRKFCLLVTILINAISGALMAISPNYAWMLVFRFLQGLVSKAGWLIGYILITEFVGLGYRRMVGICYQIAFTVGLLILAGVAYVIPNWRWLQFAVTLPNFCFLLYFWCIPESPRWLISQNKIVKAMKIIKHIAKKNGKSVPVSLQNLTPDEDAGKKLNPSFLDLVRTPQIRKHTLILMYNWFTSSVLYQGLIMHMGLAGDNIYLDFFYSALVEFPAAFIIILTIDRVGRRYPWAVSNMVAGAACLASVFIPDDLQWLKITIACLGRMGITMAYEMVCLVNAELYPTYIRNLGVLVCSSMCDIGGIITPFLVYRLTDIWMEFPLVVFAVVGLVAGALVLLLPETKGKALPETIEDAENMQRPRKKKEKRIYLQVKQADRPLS
UniProt O15245: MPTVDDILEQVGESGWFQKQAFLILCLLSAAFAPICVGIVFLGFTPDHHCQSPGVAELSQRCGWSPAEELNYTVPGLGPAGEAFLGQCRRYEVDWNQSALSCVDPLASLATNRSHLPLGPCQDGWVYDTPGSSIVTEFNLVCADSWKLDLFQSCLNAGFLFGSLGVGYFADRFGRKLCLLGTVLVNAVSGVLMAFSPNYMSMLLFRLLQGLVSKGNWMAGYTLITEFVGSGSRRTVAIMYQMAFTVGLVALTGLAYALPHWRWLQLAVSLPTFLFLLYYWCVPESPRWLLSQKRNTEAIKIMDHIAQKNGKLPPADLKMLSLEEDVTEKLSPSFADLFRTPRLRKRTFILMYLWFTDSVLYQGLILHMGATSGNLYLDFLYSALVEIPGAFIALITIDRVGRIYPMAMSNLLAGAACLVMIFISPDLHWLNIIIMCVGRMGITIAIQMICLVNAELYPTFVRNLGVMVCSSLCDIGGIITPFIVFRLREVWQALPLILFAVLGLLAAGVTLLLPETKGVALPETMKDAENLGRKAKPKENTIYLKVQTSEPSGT

## tetraethylammonium
Human OCT2
  TransportTC/TransportMC ratio, positive substrate: 10.0 ± 2.9 (TEA)
Rat Oct1
  TransportTC/TransportMC ratio, positive substrate: 8.16 ± 2.40 (TEA)
Rat Oct2
  TransportTC/TransportMC ratio, positive substrate: 7.49 ± 1.62 (TEA)
Human OCT1
  TransportTC/TransportMC ratio, positive substrate: 4.58 ± 0.26 (TEA)
